Measurements from US20230218577A1, “USE OF HEAT SHOCK PROTEIN INHIBITORS FOR THE TREATMENT OF NEURODEVELOPMENTAL DISORDERS” (The Children's Medical Center Corporation, priority 2020, published 2023).
Where two headings read alike, the source gives them in different places. Peptide text beside a SMILES is read from it. * marks the point of attachment. Cbz = O=C(OCc1ccccc1)*

Test system: mTORC1 activity (pS6) in Tsc2-sh hippocampal neurons
Experiment: mTORC1 high-content screen (mTORC1^HCA) with the Biomol collection library
[1] = Z-score of percent GFP+pS6+ neurons in compound-treated Tsc2-knockdown wells, DIV20, Biomol library, replica 1
[2] = Z-score of percent GFP+pS6+ neurons in compound-treated Tsc2-knockdown wells, DIV20, Biomol library, replica 2
[3] = Z-score of percent GFP+pS6+ neurons in compound-treated Tsc2-knockdown wells, DIV20, Biomol library screen, replica 1
[4] = Z-score of percent GFP+pS6+ neurons in compound-treated Tsc2-knockdown wells, DIV20, Biomol library screen, replica 2

Molecule | T2 Zscore (Replica 1) | T2 Zscore (Replica 2) | other results
C=C1[C@@H](C)[C@H]2[C@H](Cc3ccccc3)NC(=O)[C@]23OC(=O)/C=C/[C@H](O)CCC[C@@H](C)C/C=C/[C@H]3[C@@H]1O [Cytochalasin B] | −0.4259 | −3.902 | 
C=C(C)[C@H]1O[C@H]2CC[C@@]3(C)[C@@](O)(CC[C@H]4[C@@H]5OC(C)(C)[C@H]6C[C@@H]7C(=C)Cc8c(Cl)cc9[nH]c(c5c9c8[C@@]76O)[C@@]43C)[C@@]23O[C@H]3[C@H]1O [Penitrem A] | −0.8454 | 2.556 | 
N#C/C(=C\c1cc(Cl)cc(Cl)c1)c1cccnc1 [RG-14620] | −0.9463 | 0.845 | 
CC1=C2C[C@H]3[C@@H](CC=C4C[C@@H](O)CC[C@@]43C)[C@@H]2CC[C@]12O[C@@H]1C[C@H](C)CN[C@H]1[C@H]2C [Cyclopamine] | 0.5224 | 0.9421 | 
CCCCC/C=C\C/C=C\C/C=C\C/C=C\CCCC(=O)N[C@H](C)CO [(R)-(+)-Methandamide] | 0.1139 | 0.7185 | 
C[C@@]1(C2CCCC2)Cc2cc(OCC(=O)O)c(Cl)c(Cl)c2C1=O [R(+)-IAA-94] | 0.6402 | 0.5789 | 
COc1cc(CNC(=O)CCCC/C=C/C(C)C)ccc1O [E-Capsaicin] | −1.628 | 0.5971 | 
CCCCCCCCCCCCCCC[C@H](O)[C@@H](N)CO (racemic) [DL-Dihydrosphingosine] |  |  | T2 Zscore (Replica 1) [1]: 1.976; T2 Zscore (Replica 2) [2]: 1.253
CN(CCc1ccc(Cl)c(Cl)c1)CC(O)COc1ccc(NS(C)(=O)=O)cc1.Cl (stereo not shown) [AM 92016 • HCl] | 0.4686 | −0.2407 | 
CCCCC/C=C\C/C=C\C/C=C\C/C=C\CCCC(=O)NCCO [Anandamide (20:4, n-6)] | 0.08599 | 0.05658 | 
CC(C)(C)n1nc(-c2ccc(Cl)cc2)c2c(N)ncnc21 [PP2] | 0.7427 | 0.2943 | 
CCCCC[C@@H](/C=C/C=C\C/C=C\C/C=C\CCCC(=O)O)OO [15(S)-HPETE] | −0.01728 | 0.6446 | 
COc1ccc(CCN(C)CCCC(C#N)(c2ccc(OC)c(OC)c2)C(C)C)cc1OC (stereo not shown) [Verapimil] | −0.4145 | −1.255 | 
CCCCC/C=C\C[C@@H](O)/C=C/c1cccc(C[C@@H](O)CCCCO)n1 [U-75302] | −0.7777 | 0.1088 | 
CCCCC(C)(C)C(O)C=CC1C(O)CC(=O)C1CC=CCCCC(=O)O (stereo not shown) [16,16-Dimethyl-prostaglandin E2] |  |  | T2 Zscore (Replica 1) [3]: 0.605; T2 Zscore (Replica 2) [4]: −0.1035
O=C[C@@H]1CCCN1C(=O)[C@@H]1CCCN1C(=O)OCc1ccccc1 [Z-prolyl-prolinal] (Cbz-Pro-Pro-aldehyde) | 0.243 | −0.1015 | 
O=S(=O)(c1cccc2c(I)cccc12)N1CCCNCC1 [ML7] | 0.811 | 0.03825 | 
CCCCCCCCCCC/C=C\C(C)(C)/C=C\CCCC(=O)O [7,7-Dimethyleicosadienoic acid] | −0.1154 | 1.085 | 
Cl.O=C([O-])c1ccc(-c2c3nc(c(-c4ccc(C(=O)O)cc4)c4nc(c(-c5ccc(C(=O)O)cc5)c5ccc([nH]5)c(-c5ccc(C(=O)[O-])cc5)c5ccc2[n-]5)C=C4)C=C3)cc1.[Mn+3] [MnTBAP chloride] | −0.1478 | −0.3574 | 

Molecule | T2 Zscore (Replica 1) | T2 Zscore (Replica 2) | other results
C/C=C/C/C=C/CCC(=O)[C@H]1O[C@H]1C(N)=O [Cerulenin] |  |  | T2 Zscore (Replica 1) [3]: 0.0617; T2 Zscore (Replica 2) [4]: 0.8831
CCCCCCCCCCCCCCCCCCc1ccc(C(=O)/C=C/C(=O)O)cc1 [OBAA] | 0.1726 | 0.8212 | 
C[C@@H]1C[C@@H]([C@H](O)CC2CC(=O)NC(=O)C2)C(=O)[C@@H](C)C1 [Cycloheximide] | −0.5039 | −0.9046 | 
O[C@H]1[C@H](O)[C@@H](O)CN2CC[C@H](O)[C@H]12 [Castanospermine] |  |  | T2 Zscore (Replica 1) [3]: 0.1435; T2 Zscore (Replica 2) [4]: 1.758
CCCCCCCC/C=C\C/C=C\C/C=C\CCCC(=O)NCCO [Mead ethanolamide] | 0.2396 | −2.455 | 
NCCc1c[nH]c2ccc(O)cc12 [Serotonin] |  |  | T2 Zscore (Replica 1) [1]: 0.8367; T2 Zscore (Replica 2) [2]: 0.9264
CCCCC/C=C\C[C@H](O)/C=C/C=C\C/C=C\CCCC(=O)O [12(S)-HETE] | 0.9663 | 1.194 | 
CC(C)[C@H](NC(=O)OCc1ccccc1)C(=O)N[C@H](C=O)Cc1ccccc1 [MDL-28170] (Cbz-Val-Phe-aldehyde) |  |  | T2 Zscore (Replica 1) [1]: 0.5982; T2 Zscore (Replica 2) [2]: 1.214
O=C(/C=C/c1ccc(O)c(O)c1)OCCc1ccccc1 [CAPE] | 0.3791 | −0.592 | 
CC/C=C\C/C=C\C/C=C\CCCCCCCCCC(=O)O [Eicosatrienoic acid (20:3 n-3)] | −0.3626 | 0.9257 | 
CC1(C)CCC(C)(C)c2cc(C(=O)Nc3ccc(C(=O)O)cc3)ccc21 [AM-580] | −0.2813 | −0.2561 | 
COC(=O)Nc1nc2ccc(C(=O)c3cccs3)cc2[nH]1 [Nocodazole] |  |  | T2 Zscore (Replica 1) [1]: 1.308; T2 Zscore (Replica 2) [2]: 0.5318
OC[C@H]1O[C@@H](n2cnc3cc(Cl)c(Cl)cc32)[C@H](O)[C@@H]1O [DRB (Benzimidazole)] |  |  | T2 Zscore (Replica 1) [3]: −0.1154; T2 Zscore (Replica 2) [4]: 0.1122
O=C1C=CC(=O)c2c(O)cccc21 [Juglone] |  |  | T2 Zscore (Replica 1) [3]: 0.843; T2 Zscore (Replica 2) [4]: 0.3308
CCCCCCCCCCCCCCC(F)C(=O)O (stereo not shown) [2-Fluoropalmitic acid] |  |  | T2 Zscore (Replica 1) [3]: 0.8052; T2 Zscore (Replica 2) [4]: −0.04616
CCCCCCCCCCCCCC(=O)O[C@@H]1[C@@H](C)[C@@]2(O)[C@@H](C=C(CO)C[C@]3(O)C(=O)C(C)=C[C@@H]23)[C@@H]2C(C)(C)[C@]12OC(C)=O [Phorbol 12-myristate 13-acetate] | −0.1442 | 0.5254 | 
Ryanodine | 0.3281 | −0.256 | 
CN1CCN(C2=Nc3cc(Cl)ccc3Nc3ccccc32)CC1 [Clozapine] |  |  | T2 Zscore (Replica 1) [3]: 0.42; T2 Zscore (Replica 2) [4]: −0.102
CC(=O)N[C@@H](CC(C)C)C(=O)N[C@@H](CC(C)C)C(=O)N[C@H](C=O)CCCNC(=N)N [Leupeptin] | 0.9139 | 0.8873 | 

Molecule | T2 Zscore (Replica 1) | T2 Zscore (Replica 2) | other results
CCCCC/C=C\C/C=C\C/C=C\C/C=C\CCCC(=O)OC(CO)CO [2-Arachidonoylglycerol] | 1.604 | −0.9465 | 
CC(=O)[C@H]1[C@H](C#N)C[C@H]2[C@@H]3CC=C4C[C@@H](O)CC[C@]4(C)[C@H]3CC[C@@]21C [Pregnenolone-16α-carbonitrile] | 0.899 | −0.3046 | 
Cc1ccc2c(c1)C(=O)C1(O)CCN(c3ccccc3)C1=N2 (stereo not shown) [Blebbistatin] | −0.001023 | 0.1611 | 
C=C1/C(=C\C=C2/CCC[C@]3(C)[C@@H]([C@H](C)CCCC(C)(C)O)CC[C@@H]23)C[C@@H](O)C[C@@H]1O [25-Dihydroxyvitamin D3] | 0.7998 | 2.01 | 
CCCCC/C=C\C/C=C\C/C=C\C/C=C\CCCC(=O)O[C@H](COCCCCCCCCCCCCCCCC)COP(=O)([O-])OCC[N+](C)(C)C [Arachidonoyl-PAF] | 0.3634 | −0.7092 | 
Cc1cnc(C(=O)NCCc2ccc(S(=O)(=O)NC(=O)NC3CCCCC3)cc2)cn1 [Glipizide] |  |  | T2 Zscore (Replica 1) [3]: 0.3811; T2 Zscore (Replica 2) [4]: 0.6916
C#CCN(C)C(C)Cc1ccccc1 (stereo not shown) [Deprenyl] | −0.411 | −0.238 | 
CCCCCCCCCCCCCCC[C@@H](O)[C@H](CO)NC(=O)CCCCCCC [C8 Dihydroceramide] | −2.013 | −0.466 | 
CCOC(=O)C1=C(C)NC(C)=C(C(=O)OC)C1c1cccc([N+](=O)[O-])c1 (stereo not shown) [Nitrendipine] |  |  | T2 Zscore (Replica 1) [3]: 0.1595; T2 Zscore (Replica 2) [4]: −0.1508
CCCCC[C@H](O)/C=C/[C@@H]1[C@@H](C/C=C\CCCC(=O)O)[C@@H](O)C[C@@H]1O [9a, 11b-Prostaglandin F2] | 0.356 | −0.1986 | 
CCCCC/C=C\C=C\[C@@H](O)CCCCCCCC(=O)O [9(S)-HODE] | 0.2881 | 0.4475 | 
N#C/C(=C\c1ccc(O)c(O)c1)C(=O)OC/C=C/c1ccccc1 [CDC] | 0.2338 | −0.5378 | 
Oc1ccc(-c2nc(-c3ccc(F)cc3)c(-c3ccncc3)[nH]2)cc1 [SB 202190] | −0.01429 | 0.3809 | 
CCN(CC)CCNC(=O)c1ccc(N)cc1 [Procainamide] |  |  | T2 Zscore (Replica 1) [3]: 0.3602; T2 Zscore (Replica 2) [4]: 0.5304
CCCCCCCCCCCCCCCC(=O)NCCO [Palmitylethanolamide] |  |  | T2 Zscore (Replica 1) [3]: −0.03603; T2 Zscore (Replica 2) [4]: 1.796
CCOC(=O)C1=C[C@]2(CC)CCCN3CCc4c(n1c1ccccc41)[C@@H]32 [Vinpocetin] | −0.2631 | 1.692 | 
CN1CCN(CCCN2c3ccccc3Sc3ccc(C(F)(F)F)cc32)CC1 [Trifluoperazine] |  |  | T2 Zscore (Replica 1) [3]: 0.7275; T2 Zscore (Replica 2) [4]: 0.6177
CC[C@H](CO)Nc1nc(NCc2ccccc2)c2ncn(C(C)C)c2n1 [Roscovitine] | 1.553 | 1.224 | 
